Values of other authors, collected in patent US20090220516A1, “Neuroprotection of retinal ganglion cells” (priority 2005, published 2009).

Sequences of proteins named here, by UniProt entry; tags and fusion partners are left off. A change or cut given only in a name is not applied to a line headed by its entry.
UniProt P25099, whole entry: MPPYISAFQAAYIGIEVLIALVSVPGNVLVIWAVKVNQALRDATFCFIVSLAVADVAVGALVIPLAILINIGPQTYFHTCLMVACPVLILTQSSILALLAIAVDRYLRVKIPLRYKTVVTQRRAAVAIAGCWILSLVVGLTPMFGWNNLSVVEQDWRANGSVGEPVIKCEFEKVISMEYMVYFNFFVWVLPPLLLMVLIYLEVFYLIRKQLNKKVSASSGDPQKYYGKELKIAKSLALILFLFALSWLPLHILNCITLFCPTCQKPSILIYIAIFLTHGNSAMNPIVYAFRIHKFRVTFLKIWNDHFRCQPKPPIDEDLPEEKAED
UniProt P30543, whole entry: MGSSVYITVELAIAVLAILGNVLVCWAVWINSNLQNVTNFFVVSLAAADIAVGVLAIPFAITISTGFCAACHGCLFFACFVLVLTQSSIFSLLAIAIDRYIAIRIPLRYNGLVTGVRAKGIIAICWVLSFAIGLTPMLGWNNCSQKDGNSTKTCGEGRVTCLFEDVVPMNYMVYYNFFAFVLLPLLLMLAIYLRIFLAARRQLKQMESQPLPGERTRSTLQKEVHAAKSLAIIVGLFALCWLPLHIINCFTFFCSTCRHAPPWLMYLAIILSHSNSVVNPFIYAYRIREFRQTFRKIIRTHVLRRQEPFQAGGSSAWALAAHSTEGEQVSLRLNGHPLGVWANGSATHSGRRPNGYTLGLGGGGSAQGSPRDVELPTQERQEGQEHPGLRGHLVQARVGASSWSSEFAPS

Experiments:
[1] = target: A1 receptor (Rattus norvegicus, UniProt P25099); settings: read-out: binding displacement; cited from earlier work
[2] = target: A2A receptor (Rattus norvegicus, UniProt P30543); settings: read-out: binding displacement; cited from earlier work

Row | Structure (SMILES) | pKi [1] | pKi [2]
1 | CNC(=O)C1OC(n2cnc3c(NCc4cccc(I)c4)nc(Cl)nc32)C(O)C1O (stereo not shown) [CI-IB-MECA, 2-chloro-N6-(3-iodobenzyl)-adenosine-5-N-methyluronamide] | 6.09 | 6.38
2 | CNC(=O)[C@H]1O[C@@H](n2cnc3c(NCc4cccc(I)c4)ncnc32)[C@H](O)[C@@H]1O [IB-MECA] | 7.27 | 7.25

pKi: −log10 of the molar value.
